# Test results reported in PubChem BioAssay AID588579 (National Center for Advancing Translational Sciences (NCATS), 2011).
# Amino acid sequences for entries named in this document (tags omitted).
# UniProt Q9UBT6, whole entry: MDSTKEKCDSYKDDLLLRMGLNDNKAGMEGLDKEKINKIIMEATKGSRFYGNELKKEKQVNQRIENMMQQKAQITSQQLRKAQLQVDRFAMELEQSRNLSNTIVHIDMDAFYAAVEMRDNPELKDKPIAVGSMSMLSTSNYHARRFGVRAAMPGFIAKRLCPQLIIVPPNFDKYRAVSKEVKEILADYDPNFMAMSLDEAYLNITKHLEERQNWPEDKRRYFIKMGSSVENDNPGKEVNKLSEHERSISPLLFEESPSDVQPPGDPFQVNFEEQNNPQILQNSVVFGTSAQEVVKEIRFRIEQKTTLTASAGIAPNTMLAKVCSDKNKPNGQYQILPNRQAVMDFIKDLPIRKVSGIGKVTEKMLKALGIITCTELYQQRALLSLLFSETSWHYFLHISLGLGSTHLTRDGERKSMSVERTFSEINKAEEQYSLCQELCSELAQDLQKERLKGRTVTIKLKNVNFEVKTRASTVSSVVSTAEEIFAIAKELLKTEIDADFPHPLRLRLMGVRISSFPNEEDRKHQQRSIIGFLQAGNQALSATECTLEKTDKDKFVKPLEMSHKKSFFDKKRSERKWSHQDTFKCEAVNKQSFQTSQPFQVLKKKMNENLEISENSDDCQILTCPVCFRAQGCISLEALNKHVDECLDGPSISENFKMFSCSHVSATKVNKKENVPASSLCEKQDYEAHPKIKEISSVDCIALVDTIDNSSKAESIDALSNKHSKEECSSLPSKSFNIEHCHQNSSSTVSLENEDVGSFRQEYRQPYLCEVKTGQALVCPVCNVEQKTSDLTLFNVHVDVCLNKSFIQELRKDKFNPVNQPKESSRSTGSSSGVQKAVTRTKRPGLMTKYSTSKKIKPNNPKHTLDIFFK
# The entries are a selection whose mix differs from that of the whole data set. Some of these compounds have results that are not shown, active ones among them. Records with an inconclusive call do not appear. Active and inactive are the calls of the source. The call rests on the fitted dose curve; in most records, active means well fitted inhibition curve with a large enough effect; inconclusive means small, poorly fitted or top-dose-only effect, or another doubt; inactive means no such curve, though single readings can be large or run the other way.
# Target: DNA polymerase kappa (Homo sapiens) (UniProt Q9UBT6)
# Assay: qHTS for Inhibitors of Polymerase Kappa
# Settings: purified Pol kappa, fluorescent DNA synthesis assay, 10 min; at 107 µM (top of the series)
# Procedure: The processing and repair of DNA interstrand crosslinks (ICL) in eukaryotic cells are extremely complex, potentially involving multiple DNA repair and damage tolerance pathways, including homologous recombination, nucleotide excision repair, translesion synthesis (TLS), and cell cycle checkpoints.
# To that end, in a collaboration between the Oregon Health & Science University and the NIH Chemical Genomics Center a 1536-well high-throughput screen was developed. This fluorescent screen was assayed against the NIH Molecular Libraries Small Molecule Repository (MLSMR) to discover inhibitors of Pol Kappa.
# NIH Chemical Genomics Center [NCGC]
# NIH Molecular Libraries Probe Centers Network [MLPCN]
# Assay Submitter (PI): Stephen Lloyd, Oregon Health & Science University
# Three microliters of reagents (buffer in column 3 and 4 as negative control and 10 nM Pol kappa in columns 1, 2, and 5-48) were dispensed into a 1536-well black solid-bottom plate. Compounds (23 nL) were transferred via Kalypsys pin tool equipped with 1536-pin array. The plates were then incubated for 15 min at room temperature, and 1 uL substrate (50 nM final concentration) were then added to start the reaction and kinetically read twice at 0 min and 10 min on the Viewlux reader
# On the % scale 0 is the no-effect control and ±100 the full control effect.
row,Compound,"activity, negative = inhibition"
1,O=C(CBr)c1ccc(Cl)cc1,inactive: -7.5%
2,C=CCN1CCN(CCOC(=O)C(O)(c2ccccc2)c2ccccc2)CC1,inactive: 11%
3,CC(C)N1C(=O)CC2(CCN(CCOC(=O)C(O)(c3ccccc3)c3ccccc3)CC2)C1=O,inactive: -6.61%
